We go through one compound from patent US20050033035A1, “Mutants of igf binding proteins and methods of production of antagonists thereof” (priority 2001, published 2005).

By UniProt entry, the sequences of proteins in these tests, tags left out. Residues count along the entry.
UniProt P24593, 60-112: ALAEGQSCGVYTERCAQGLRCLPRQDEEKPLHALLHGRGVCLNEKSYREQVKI

The experiment has as its target T1, IGFBP-5 (Homo sapiens, UniProt P24593).
T1 construct: His-tag (N); T7-tag (pET-28a construct only) (N); made in house; host or cells: E. coli BL21
The experiment in a line: Detection of ligand binding by 15N-HSQC NMR titration. To be noted: changes in chemical shift for the residue L81. The protocol:
Ligand binding was detected by acquiring ^15N—HSQC spectra. All NMR spectra were acquired at 300 K on Bruker DRX600 spectrometer. The samples for NMR spectroscopy were concentrated and dialyzed against PBS buffer. Typically, the sample concentration was varied from 0.3 to 1.0 mM. Before measuring, the sample was centrifuged in order to sediment aggregates and other macroscopic particles. 450 μl of the protein solution were mixed with 50 μl of D2O (5-10%) and transferred to an NMR sample tube. The stock solutions of compounds were 100 mM either in water or in perdeuterated DMSO. pH was maintained constant during the whole titration. The binding was monitored by observation of the changes in the ^15N—HSQC spectrum. Dissociation constants were obtained by monitoring the chemical shift changes of the backbone amide of several amino acid residues (Table 9) as a function of ligand concentration. Data were fit using a single binding site model. In the same way dissociation constants for derivatives of compound 2 are estimated (Table 10).

Consider `CC(C)C[C@H](NC(=O)OCC1c2ccccc2-c2ccccc21)C(=O)O` [Compound 2D, Nα-FMOC-L-leucine], for which the Kd was 1.09 ± 0.519 mM.

The term Kd denotes the constant that tells how readily two partners part at equilibrium.
